# Measurements taken from PubChem BioAssay AID493036 (Sanford-Burnham Center for Chemical Genomics, 2011).
# The chains behind the UniProt entries cited, without tags or fusion partners.
# UniProt P30989, whole entry: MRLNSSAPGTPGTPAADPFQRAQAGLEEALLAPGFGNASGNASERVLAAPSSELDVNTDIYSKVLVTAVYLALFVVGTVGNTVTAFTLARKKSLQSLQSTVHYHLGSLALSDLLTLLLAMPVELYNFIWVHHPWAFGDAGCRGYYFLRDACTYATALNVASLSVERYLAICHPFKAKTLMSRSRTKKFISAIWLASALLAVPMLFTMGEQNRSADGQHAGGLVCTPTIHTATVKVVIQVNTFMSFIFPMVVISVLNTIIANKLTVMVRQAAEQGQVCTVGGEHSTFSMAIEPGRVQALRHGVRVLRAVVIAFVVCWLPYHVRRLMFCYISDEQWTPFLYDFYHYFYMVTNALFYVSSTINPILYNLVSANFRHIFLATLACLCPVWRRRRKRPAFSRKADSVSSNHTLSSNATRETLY
# Only a part is listed here, and it is no random draw. Active and inactive are the calls of the source.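 Rule for the calls: active = activation at or above 40% of the spot to cytoplasm intensity ratio, with at least 20 cells analyzed; inconclusive = wells under 20 cells, flagged as cytotoxic or low count; inactive = the rest.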
# Molecular target: Neurotensin receptor type 1 (Homo sapiens) (UniProt P30989)
# Test: NTR1-driven beta-arrestin-GFP spot formation – imaging, U2OS cells, high content, primary screen (AID 493036) (AID 493036);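 note: 0% = DMSO without peptide and 100% = 100 nM NTR1 peptide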
# Conditions: agonist mode, at 20 µM, hits give high values
row,SMILES,activation
1,CCC(CO)(C(=O)OC1CN2CCC1CC2)c1ccccc1 (configuration not stated),inactive: -1.1%
2,COc1cc(OC)cc(C(=O)NCC2(N3CCOCC3)CCCCC2)c1,inactive: 0.5%
3,COc1cccc(C(=O)N(c2cc(C)cc(C)c2)C2CCN(C(=O)OC(C)(C)C)CC2)c1,inactive: 2.7%
4,CCCOc1ccc(C)cc1CN(CCCl)CCCl,inactive: 0.8%
5,CN1CCC(Nc2ccc(Cl)cc2)CC1,inactive: -1.9%
6,CN1CCC(Nc2ccc(F)c(Cl)c2)CC1,inactive: -1%
7,CCOc1ncccc1C(=O)NCC1(N2CCOCC2)CCCCC1,inactive: 4.4%
8,CCCOc1ccc(C(=O)NCC2(N(C)C)CCCCC2)cc1,inactive: -0.9%
9,O=C(O)C1(Nc2ccccc2)CCN(Cc2ccccc2)CC1,inactive: -0.9%
10,CC(C)(C)OC(=O)N1CCC(Nc2ccccc2)CC1,inactive: 0.5%
11,CCN1CCC(Nc2cccc(F)c2)CC1,inactive: -0.7%
12,CN(C)c1ccc(C(=O)NCC2(N3CCCCC3)CCCCC2)cc1,inactive: 0.8%
13,O=C(NCC1(N2CCCCC2)CCCCC1)c1ccco1,inactive: -0.7%
14,COc1cc(OC)cc(C(=O)NCC2(N3CCCCC3)CCCCC2)c1,inactive: -0.7%
15,Fc1ccccc1NC1CCN(Cc2ccccc2)CC1,inactive: -1.7%
16,Cc1ccc(C(=O)NCC2(N3CCCCC3)CCCCC2)o1,inactive: 0.1%
17,CCCN1CCC(Nc2cc(OC)cc(OC)c2)CC1,inactive: 2.5%
18,c1ccc(CN2CCC(Nc3ccccc3)CC2)cc1,inactive: -0.1%
19,CN(C)C1(CNC(=O)c2cccc(C#N)c2)CCCCC1,inactive: 0.5%
20,CC(C)(C)OC(=O)N1CCC(N(C(=O)c2ccccc2)c2ccc(Cl)cc2)CC1,inactive: 3.4%
21,N#Cc1ccc(C(=O)NCC2(N3CCCCC3)CCCCC2)cc1,inactive: -1.7%
22,N/C(=N\O)c1c(N)no[n+]1[O-],inactive: -1.2%
23,CCOC(=O)N1CCC(Nc2ccc(C)cc2)CC1,inactive: -1.1%

row,SMILES,activation
1,O=C(OC1CN2CCC1CC2)C1c2ccccc2C=Cc2ccccc21 (configuration not stated),inactive: 0%
2,CCc1cc(C(=O)NCC2(N3CCCCC3)CCCCC2)sc1C,inactive: 0.8%
3,O=C(NCC1(N2CCOCC2)CCCCC1)c1cc(Br)ccc1Cl,inactive: 1.6%
4,COc1cc(C(=O)NCC2(N3CCOCC3)CCCCC2)cc(OC)c1C,inactive: -0.9%
5,COc1ccc(C(=O)NCC2(N3CCOCC3)CCCCC2)cc1OC,inactive: -0.1%
6,O=C(NCC1(N2CCCCC2)CCCCC1)c1cncc(Br)c1,inactive: -1.2%
7,CN1CCC(Nc2cccc(F)c2)CC1,inactive: -1.1%
8,CN(C)c1cccc(C(=O)NCC2(N3CCCCC3)CCCCC2)c1,inactive: 0.4%
9,COc1ccc(CN(CCCl)CCCl)cc1Cl,inactive: 0.7%
10,CC(C)c1ccc(NC2CCN(C(=O)OC(C)(C)C)CC2)cc1,inactive: 8.2%
11,O=C(NCC1(N2CCOCC2)CCCCC1)c1cc(F)c(F)cc1Cl,inactive: 1%
12,COc1cc(OC)c(C(=O)NCC2(N(C)C)CCCCC2)cc1OC,inactive: 0.7%
13,O=C(NCC1(N2CCCCC2)CCCCC1)c1cccc(C(F)(F)F)c1,inactive: 1.2%
14,CN1CCN(CCOC(=O)C(O)(c2ccccc2)c2ccccc2)CC1,inactive: 1.9%
15,COc1ccc(NC2CCN(C(=O)OC(C)(C)C)CC2)cc1,inactive: 0.9%
16,CC(C)c1ccc(C(=O)NCC2(N3CCOCC3)CCCCC2)cc1,inactive: 1.9%
17,COc1cc(C(=O)NCC2(N3CCCCC3)CCCCC2)ccc1OC(F)F,inactive: 0.4%
18,O=C(NCC1(N2CCOCC2)CCCCC1)c1cc(=O)[nH]c2ccccc12,inactive: 0.2%
19,O=C(NCC1(N2CCCCC2)CCCCC1)c1ccc(OC(F)F)cc1,inactive: -0.6%
20,CSc1ccc(C(=O)NCC2(N3CCOCC3)CCCCC2)cc1,inactive: 1.1%
21,O=C(NCC1(N2CCCCC2)CCCCC1)c1cccc([N+](=O)[O-])c1,inactive: -0.4%
22,N#CC1(Nc2ccccc2)CCN(CCc2ccccc2)CC1,inactive: -0.9%
23,CCN1CCC(Nc2ccc(Cl)cc2)CC1,inactive: 2.1%

row,SMILES,activation
1,Cc1ccc(OCC(C)C)c(CN(CCCl)CCCl)c1,inactive: 0.8%
2,CCOC(=O)N1CCC(Nc2cccc(C)c2)CC1,inactive: 0.8%
3,CCOc1ccc(C)cc1CN(CCCl)CCCl,inactive: 0.3%
4,COc1ccc(NC2CCN(CCc3ccccc3)CC2)c(OC)c1,inactive: -1.4%
5,CCOC(=O)N1CCC(Nc2ccc(F)cc2)CC1,inactive: -0.9%
6,O=C(NCC1(N2CCCCC2)CCCCC1)c1ccc(F)cc1,inactive: 0.9%
7,CCCCOc1ccc(C(=O)NCC2(N3CCOCC3)CCCCC2)cc1,inactive: 0.5%
8,O=C(NCC1(N2CCOCC2)CCCCC1)c1cc2ccccc2o1,inactive: -1.5%
9,Cc1cc(C)cc(N(C(=O)c2ccccc2)C2CCN(C(=O)OC(C)(C)C)CC2)c1,inactive: 4.1%
10,O=C(NCC1(N2CCCCC2)CCCCC1)c1ccc(Cl)nc1,inactive: -0.2%
11,CCOC(=O)N1CCC(Nc2ccc(OC)cc2)CC1,inactive: -1.3%
12,COc1ccc(Cl)cc1C(=O)NCC1(N2CCOCC2)CCCCC1,inactive: -0.2%
13,O=C(OC1CN2CCC1CC2)C1c2ccccc2Oc2ccccc21 (configuration not stated),inactive: 2%
14,N#CC1(Nc2ccccc2)CCN(Cc2ccccc2)CC1,inactive: -0.2%
15,O=C(NCC1(N2CCCCC2)CCCCC1)c1ccc(Cl)s1,inactive: -0.9%
16,O=C(NCC1(N2CCCCC2)CCCCC1)c1cccs1,inactive: -1.7%
17,O=C(NCC1(N2CCCCC2)CCCCC1)c1ccc(=O)[nH]c1,inactive: -0.1%
18,COc1ccc(C(=O)NCC2(N3CCCCC3)CCCCC2)c(OC)c1OC,inactive: -0.3%
19,CC(C)(C)OC(=O)N1CCC(N(C(=O)c2ccccc2)c2ccc(F)cc2)CC1,inactive: -0.4%
20,COc1ccc(C(=O)NCC2(N3CCCCC3)CCCCC2)cc1,inactive: 0.2%
21,CSc1ccccc1C(=O)NCC1(N2CCCCC2)CCCCC1,inactive: 1.6%
